Earlier results as cited in paper PMC4266452, “Prediction of Thorough QT study results using action potential simulations based on ion channel screens” (Journal of Pharmacological and Toxicological Methods, 2014).

Settings: ref Gintant (2011); cited from earlier work

## CN(CCOc1ccc(NS(C)(=O)=O)cc1)CCc1ccc(NS(C)(=O)=O)cc1 [Dofetilide]
  therapeutic range, lower value: 0.4 nM
  therapeutic range, upper value: 2 nM
